Data: US20250361252A1 (EVER Neuro Pharma GmbH, priority 2022, published 2025)

Assays:
[1] = In vitro stability in human liver S9 homogenate

Substance	solubility in water	conversion of apomorphine monophosphate to apomorphine [1]
Apomorphine Monophosphate Magnesium Salt [VIR-1-097-Mg]	Reduced solubility in water	–
apomorphine monophosphate	–	No conversion of prodrug observed
